This is a selection; strong and weak results do not stand in their true shares. Calls of active or inactive are those of the source. Cut-off read from the data, not from the text of the source: active = activation above about 15%; inactive = the rest.

Sequences of proteins named here, by UniProt entry; tags and fusion partners are left off.
UniProt O08726, whole entry: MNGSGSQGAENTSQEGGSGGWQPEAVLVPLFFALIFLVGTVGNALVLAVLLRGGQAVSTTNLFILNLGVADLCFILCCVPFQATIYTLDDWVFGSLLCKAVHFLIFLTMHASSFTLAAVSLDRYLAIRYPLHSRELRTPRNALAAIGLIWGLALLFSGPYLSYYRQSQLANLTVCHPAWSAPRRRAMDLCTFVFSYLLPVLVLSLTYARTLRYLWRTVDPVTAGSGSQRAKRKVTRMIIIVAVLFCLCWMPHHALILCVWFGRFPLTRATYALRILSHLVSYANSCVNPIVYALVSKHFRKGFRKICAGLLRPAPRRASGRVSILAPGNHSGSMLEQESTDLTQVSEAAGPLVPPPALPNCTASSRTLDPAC

This test deals with Galanin receptor type 2 (Rattus norvegicus) (UniProt O08726). As to the kind of experiment: activates the rat galanin receptor 2 (AID 833). The conditions noted are these: cell-based GALR2 agonist screen; at 10 µM; active compounds read high.
Consider `Cc1ccccc1NC1CC(C)(C)NC(C)(C)C1`, for which the activation was inactive: -5.15%.

(Values after PubChem BioAssay AID833 (The Scripps Research Institute Molecular Screening Center, 2007).)
